# Measurements reported in BindingDB's records for 18484710 (University of Pennsylvania, 2008).
# Sequences of proteins named here, by UniProt entry; tags and fusion partners are left off. A change or cut given only in a name is not applied to a line headed by its entry.
# UniProt P49841: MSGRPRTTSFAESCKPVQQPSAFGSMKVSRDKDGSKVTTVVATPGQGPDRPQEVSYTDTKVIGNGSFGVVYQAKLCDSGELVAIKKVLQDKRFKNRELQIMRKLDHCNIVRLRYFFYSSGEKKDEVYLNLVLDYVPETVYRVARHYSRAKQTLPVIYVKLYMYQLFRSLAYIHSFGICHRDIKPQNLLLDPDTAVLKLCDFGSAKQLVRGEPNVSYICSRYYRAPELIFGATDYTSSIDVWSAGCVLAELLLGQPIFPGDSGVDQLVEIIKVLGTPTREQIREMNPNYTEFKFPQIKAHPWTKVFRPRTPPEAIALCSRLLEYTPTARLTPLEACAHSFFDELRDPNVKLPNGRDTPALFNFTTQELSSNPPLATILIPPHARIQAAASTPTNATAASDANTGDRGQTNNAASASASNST
# pIC50: −log10 of the molar value.
# Molecular target: Glycogen synthase kinase-3 beta (Homo sapiens, UniProt P49841)
# Test: Biochemical Assay
# Conditions: pH 7.5
# Source text: Fluorescence polarization-based kinase in vitro assay using human PI3K alpha purchased from Echelon Biosciences and p110 alpha/p85 alpha from Upstate follow by a Kinase Glo assay from Promega.
row,SMILES,pIC50
1,N#[C][Ru]1[n]2c3ccc(O)cc3c3c4c(c5ccc[n+]1c5c32)C(=O)NC4=O,8.85
2,CN1C(=O)c2c(c3c4cc(O)ccc4[n]4c3c3c2ccc[n+]3[Ru]4[C]#N)C1=O,< 6.00
